From ChEMBL document CHEMBL3763047, “Flavonoid derivatives as selective ABCC1 modulators: Synthesis and functional characterization” (Eur J Med Chem, 2016)

Chains of the proteins cited; added tags and fusions are not shown. Lines headed by an entry give the natural chain unless they say otherwise; changes in a name come on top.
UniProt Q9UNQ0: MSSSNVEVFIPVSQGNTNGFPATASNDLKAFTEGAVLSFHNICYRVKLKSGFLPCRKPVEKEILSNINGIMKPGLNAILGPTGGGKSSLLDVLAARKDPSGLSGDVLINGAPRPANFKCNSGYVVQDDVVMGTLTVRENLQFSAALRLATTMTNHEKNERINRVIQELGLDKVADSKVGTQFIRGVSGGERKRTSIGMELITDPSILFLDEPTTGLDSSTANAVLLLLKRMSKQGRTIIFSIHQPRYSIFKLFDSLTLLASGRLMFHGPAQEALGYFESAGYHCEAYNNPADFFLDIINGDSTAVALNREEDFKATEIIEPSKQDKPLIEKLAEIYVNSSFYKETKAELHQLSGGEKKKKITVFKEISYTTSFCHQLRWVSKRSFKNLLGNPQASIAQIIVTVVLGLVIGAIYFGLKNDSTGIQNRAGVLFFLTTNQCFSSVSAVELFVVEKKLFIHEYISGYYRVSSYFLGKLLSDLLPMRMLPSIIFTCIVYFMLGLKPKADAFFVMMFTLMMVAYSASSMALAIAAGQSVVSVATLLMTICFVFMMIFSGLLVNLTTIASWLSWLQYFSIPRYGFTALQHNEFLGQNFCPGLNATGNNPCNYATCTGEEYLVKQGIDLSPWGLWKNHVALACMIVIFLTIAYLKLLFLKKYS

Target: Broad substrate specificity ATP-binding cassette transporter ABCG2 (Homo sapiens, UniProt Q9UNQ0)
Test: Inhibition of ABCG2 in human MCF7/Topo cells by Hoechst 33342 assay
Assay type: cell-based

COc1ccc(CCNC(=O)c2cc(=O)c3c(OCc4ccccc4)cccc3o2)cc1OC
IC50: 1.8 µM
